#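 Five compound concentrations were applied to cells in 96-well plates for 48 hours; endpoints were derived by simple linear interpolation of the resulting dose-response curve. The concentration for full growth arrest is given as TGI.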
# How the values were obtained:
# Experiment in all cases: DTP human tumour cell line panel, 48 h
# SNB-19 CNS = tested on: SNB-19 CNS
# HOP-62 NSCLC = tested on: HOP-62 NSCLC
# SF-268 CNS = tested on: SF-268 CNS
# M14 melanoma = tested on: M14 melanoma
# NCI-H522 lung = tested on: NCI-H522 lung
# OVCAR-3 ovarian = tested on: OVCAR-3 ovarian
# SW-620 colon = tested on: SW-620 colon
# OVCAR-8 ovarian = tested on: OVCAR-8 ovarian
# NCI/ADR-RES ovarian = tested on: NCI/ADR-RES ovarian
# NCI-H226 lung = tested on: NCI-H226 lung
# UACC-257 melanoma = tested on: UACC-257 melanoma
# SK-MEL-28 melanoma = tested on: SK-MEL-28 melanoma
# SF-295 CNS = tested on: SF-295 CNS
# SN12C renal = tested on: SN12C renal
# HS 578T breast = tested on: HS 578T breast
# LOX IMVI melanoma = tested on: LOX IMVI melanoma
# SF-539 CNS = tested on: SF-539 CNS
# MOLT-4 leukemia = tested on: MOLT-4 leukemia
# TK-10 renal = tested on: TK-10 renal
# K-562 leukemia = tested on: K-562 leukemia
# EKVX NSCLC = tested on: EKVX NSCLC
# UACC-62 melanoma = tested on: UACC-62 melanoma
# OVCAR-5 ovarian = tested on: OVCAR-5 ovarian
# HT29 colon = tested on: HT29 colon
# MALME-3M melanoma = tested on: MALME-3M melanoma
# NCI-H322M lung = tested on: NCI-H322M lung
# MDA-MB-231 breast = tested on: MDA-MB-231 breast
# PC-3 prostate = tested on: PC-3 prostate
# MDA-MB-435 = tested on: MDA-MB-435
# RPMI-8226 leukemia = tested on: RPMI-8226 leukemia
# ACHN renal = tested on: ACHN renal
# HOP-92 NSCLC = tested on: HOP-92 NSCLC
# COLO 205 colon = tested on: COLO 205 colon
# KM12 colon = tested on: KM12 colon
# U251 CNS = tested on: U251 CNS
# IGROV1 ovarian = tested on: IGROV1 ovarian
# BT-549 breast = tested on: BT-549 breast
# OVCAR-4 ovarian = tested on: OVCAR-4 ovarian
# A549 NSCLC = tested on: A549 NSCLC
# A498 renal = tested on: A498 renal
# HCT-116 colon = tested on: HCT-116 colon
# SK-MEL-2 melanoma = tested on: SK-MEL-2 melanoma
# NCI-H23 lung = tested on: NCI-H23 lung
# SR leukemia = tested on: SR leukemia
# SK-OV-3 ovarian = tested on: SK-OV-3 ovarian
# SNB-75 CNS = tested on: SNB-75 CNS
# RXF 393 renal = tested on: RXF 393 renal
# NCI-H460 lung = tested on: NCI-H460 lung
# CAKI-1 renal = tested on: CAKI-1 renal
# MCF7 breast = tested on: MCF7 breast
# HCT-15 colon = tested on: HCT-15 colon
# SK-MEL-5 melanoma = tested on: SK-MEL-5 melanoma
# T-47D breast = tested on: T-47D breast
# HL-60(TB) leukemia = tested on: HL-60(TB) leukemia
# HCC-2998 colon = tested on: HCC-2998 colon
# MDA-N = tested on: MDA-N
# CCRF-CEM leukemia = tested on: CCRF-CEM leukemia
# UO-31 renal = tested on: UO-31 renal
# 786-0 renal = tested on: 786-0 renal
# DU-145 prostate = tested on: DU-145 prostate
smiles,measurement,setting,value
CC1=CC23C(COC(=O)C24CO4)C(C(=O)O)=CC3C1C (stereo not given),TGI,SNB-19 CNS,31.5 µM
same,TGI,HOP-62 NSCLC,60.3 µM
same,TGI,SF-268 CNS,24.8 µM
same,TGI,M14 melanoma,17.4 µM
same,TGI,NCI-H522 lung,4.32 µM
same,TGI,OVCAR-3 ovarian,95.4 µM
same,TGI,SW-620 colon,> 100 µM
same,TGI,OVCAR-8 ovarian,62 µM
same,TGI,NCI/ADR-RES ovarian,41.9 µM
same,TGI,NCI-H226 lung,45.4 µM
same,TGI,UACC-257 melanoma,88.8 µM
same,TGI,SK-MEL-28 melanoma,5.29 µM
same,TGI,SF-295 CNS,> 100 µM
same,TGI,SN12C renal,14.1 µM
same,TGI,HS 578T breast,8.31 µM
same,TGI,LOX IMVI melanoma,29.9 µM
same,TGI,SF-539 CNS,54.5 µM
same,TGI,MOLT-4 leukemia,45.2 µM
same,TGI,TK-10 renal,94.6 µM
same,TGI,K-562 leukemia,45.8 µM
same,TGI,EKVX NSCLC,98 µM
same,TGI,UACC-62 melanoma,28.7 µM
same,TGI,OVCAR-5 ovarian,> 100 µM
same,TGI,HT29 colon,69.5 µM
same,TGI,MALME-3M melanoma,17.6 µM
same,TGI,NCI-H322M lung,74.8 µM
same,TGI,MDA-MB-231 breast,96.4 µM
same,TGI,PC-3 prostate,50.2 µM
same,TGI,MDA-MB-435,89 µM
same,TGI,RPMI-8226 leukemia,8.88 µM
same,TGI,ACHN renal,79.5 µM
same,TGI,HOP-92 NSCLC,43.5 µM
same,TGI,COLO 205 colon,92.5 µM
same,TGI,KM12 colon,31.1 µM
same,TGI,U251 CNS,> 100 µM
same,TGI,IGROV1 ovarian,75.9 µM
same,TGI,BT-549 breast,61 µM
same,TGI,OVCAR-4 ovarian,80.1 µM
same,TGI,A549 NSCLC,82.2 µM
same,TGI,A498 renal,64 µM
same,TGI,HCT-116 colon,87.7 µM
same,TGI,SK-MEL-2 melanoma,8.99 µM
same,TGI,NCI-H23 lung,82.6 µM
same,TGI,SR leukemia,81.4 µM
same,TGI,SK-OV-3 ovarian,71.6 µM
same,TGI,SNB-75 CNS,65.2 µM
same,TGI,RXF 393 renal,17.9 µM
same,TGI,NCI-H460 lung,58.6 µM
same,TGI,CAKI-1 renal,39.4 µM
same,TGI,MCF7 breast,> 100 µM
same,TGI,HCT-15 colon,69.5 µM
same,TGI,SK-MEL-5 melanoma,59.8 µM
same,TGI,T-47D breast,41.4 µM
same,TGI,HL-60(TB) leukemia,61.1 µM
same,TGI,HCC-2998 colon,38.5 µM
same,TGI,MDA-N,75.5 µM
same,TGI,CCRF-CEM leukemia,27.6 µM
same,TGI,UO-31 renal,82 µM
same,TGI,786-0 renal,74.6 µM
same,TGI,DU-145 prostate,82.7 µM

# — PubChem BioAssay (NCI)
